Literature values, collected in patent publication US20050043786A1, “Methods and apparatus for treatment of aneurysmal tissue” (Medtronic AVE, Inc., priority 2003, published 2005).

Conditions: in vivo

In the case of `NCCCC[C@H](N[C@@H](CCc1ccccc1)C(=O)O)C(=O)N1CCC[C@H]1C(=O)O` [lisinopril], the “route of clearance / elimination” value is listed as “cleared as the intact compound in the kidney”.
